Ab-14 light chain CDR variants: yeast mating affinities

All variants were tested on one target, the spike HR2 peptide PDVDLGDISGINAS (SARS-CoV-2).

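Phage display of a naive human antibody library on the peptide gave the parent. These sequences belong to a second round, designed from the earlier measurements on random variants of the parent. Group labels follow the data file (En: ensemble of fine-tuned language models; GP: Gaussian process model; HC: hill climbing; Gen: genetic algorithm; Gibbs: Gibbs sampling; a sequence that several methods proposed may carry one label only). AlphaSeq pools MATa yeast showing the antibodies with MATalpha yeast showing the peptide. Mating (16 h, 30 °C) was followed by selection of diploids and sequencing of their barcodes. Each replicate has its own calibration line, from reference interactions of the BCL2 family. Each pool was mated in six replicate cultures.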

Parent scFv Ab-14: VH joined to VL by a (GGGGS)3 linker. Changes lie in the light chain CDRs alone.
VH: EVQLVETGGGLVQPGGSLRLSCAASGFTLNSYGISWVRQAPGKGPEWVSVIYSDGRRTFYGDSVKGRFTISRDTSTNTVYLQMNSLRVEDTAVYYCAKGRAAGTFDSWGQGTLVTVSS
VL: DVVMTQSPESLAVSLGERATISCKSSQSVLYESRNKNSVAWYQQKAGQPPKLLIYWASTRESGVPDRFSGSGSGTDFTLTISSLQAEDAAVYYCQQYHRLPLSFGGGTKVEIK

Each variant is given by its three light chain CDRs, as the data file delimits them; those of the parent are KSSQSVLYESRNKNSVA, WASTRES, QQYHRLPLS.
Variants here have more than six changes.
Values are apparent Kd, the geometric mean of the replicates that gave a signal; lower means stronger binding.
An entry "nd" has no value in the source: the pair was not observed among the diploids in any replicate. This suggests poor binding but is not conclusive.

CDR-L1	CDR-L2	CDR-L3	group	Kd (apparent)	seen in
NLSGHQYNNSQKKNSIA	EDNNIRL	QQYHRLPFT	En_Gibbs	550 nM	5 of 6
KVEQLVDPKDRNSNSVA	NASTRES	QQYHQLPLS	GP_Gibbs	850 pM	6 of 6
KLYDMAAVTMQNIRNVA	DNSTREY	QQYNRLPLS	En_Gen	270 nM	1 of 6
KMAQGWMYESRMKNSVA	NASVREM	QQYHRLPLS	GP_Gibbs	1.4 nM	6 of 6
MLWQQMEGFNGVKDAIA	NAEERTG	QQYGRLPLS	En_Gibbs	37 nM	6 of 6
QLGKNQSGDTLSQNAIA	HDALLVD	QQYFRLPLL	En_Gibbs	26 nM	6 of 6
KISMSVTFENRNKNSVA	ENSTRES	QSYHRLPLS	En_HC	71 nM	1 of 6
FLEYASDQTGLQGNAIA	QVNLKEN	QQYMRLPLA	En_Gibbs	21 nM	4 of 6
HLKTMPGQGPQEYSSIA	HAELRTP	QQYYRLPLM	En_Gibbs	1.6 nM	6 of 6
KLSATYRFESSNKNNIA	EMTTRES	QCYHRLPLS	En_HC	3.3 nM	6 of 6
KMSQSVWYEQRNFNSVA	NGSTREQ	QQYHRLPLS	GP_Gibbs	2.7 nM	6 of 6
SVHFQGTTGEQNWESVA	ENSIRVE	QQYSHLPLL	En_Gibbs	14 nM	6 of 6
IVSQLMLWGMHAKNSIA	EAQTRVN	QQYDRLPLF	En_Gen	14 nM	6 of 6
TIGAATLEESRNKNSVA	EMSMREN	QSYNRLPLS	En_HC	8.7 nM	6 of 6
HLSQSVDLESVHKNSIA	DLMTRES	QQYDRLPLS	En_HC	3.2 nM	6 of 6
KLYQNVGTMSHNKQSIA	DMERRER	QQYHRLPLS	En_HC	1.2 nM	6 of 6
KIGATLNQMMHKKNNVA	DLVTREN	QQYHRLPLS	En_Gen	3.5 nM	6 of 6
MISQLYNMGTFAINSVA	QAQTRVE	QQYDRLPLI	En_Gen	87 nM	4 of 6
NMLPHMLEDQNIANAIA	EATMVYD	QQYLSLPLS	En_Gibbs	130 nM	5 of 6
KQSKMVMEGSRNKNSVA	EASQREE	QQYHRLPLS	GP_Gibbs	1.0 nM	6 of 6
KCDQSWGYESRNKNNVA	NASQRES	QQYHRLPLS	GP_Gibbs	380 pM	6 of 6
HISMSMNWLTRNKNSIA	EESTRED	QQYHRLPLS	En_HC	930 pM	6 of 6
MISQIYNMGSFAINSVA	QASLRNE	QQYDRLPLM	En_Gen	32 nM	6 of 6
MISQLFMYGSRNMNSIA	QAETREK	QQYDRLPLE	En_HC	42 nM	6 of 6
KYDFSVLEESRNPNSVA	NASTREE	QDYHRLPLS	GP_Gibbs	3.5 nM	6 of 6
KLGGVTEYEMRNINSVA	QMTTRES	QQYHRLPLS	En_HC	2.2 nM	6 of 6
KISMLQRYESQNKNSIA	EMSRREN	QQYHRLPLA	En_HC	32 nM	6 of 6
KLMQSDLYESRMKNAVA	DASTRME	QQYHRLPLS	GP_Gibbs	910 pM	6 of 6
HMSALTLQGMRARNSVA	QMTTREN	QQYDHLPLS	En_Gen	5.7 nM	6 of 6
KITGMWTFESRNKNNIA	EESTRED	QSYHRLPLS	En_HC	5.4 nM	6 of 6
KLMNSMLYESRNVNNVA	NASYREL	QQYHRLPLS	GP_Gibbs	720 pM	6 of 6
IVSQLMLWGYHMKNSIA	EAEMRLN	QQYERLPLF	En_Gen	nd	0 of 6
KVSEMSAFLSSNRNSVA	DNSTRGS	QQYHRLPLS	En_HC	17 nM	6 of 6
HMNDMLLGQEKIAHSIA	NTGVTSR	QQYQRLPLI	En_Gibbs	14 nM	6 of 6
MVNNIMDHLSKQTNNVA	ETVTREE	QQYDRLPLT	En_Gen	nd	0 of 6
MISDLTMMGSRNKNSVA	DLSTRGS	QQYARLPLS	En_HC	920 pM	6 of 6
KLRQLTHIESFNKNNVA	EMTTREA	QSYDRLPLS	En_HC	23 nM	6 of 6
KLSQSVLYEQQNWNQVA	ESSTRMS	QQYHRLPLS	GP_Gibbs	1.1 nM	6 of 6
KLSASQLYESRVSNAVA	NASTRMM	QQYHRLPLS	GP_Gibbs	660 pM	6 of 6
KVFISELGLSRNKMSVA	DASTRES	QQYHRLPLS	GP_Gibbs	2.5 nM	6 of 6
MISQLYNMGTFAINSVA	QASIRNL	QQYDRLPLM	En_Gen	360 nM	3 of 6
KFHMGHEAGQRKHDNVA	EANLRPS	QQYFRLPII	En_Gibbs	44 nM	6 of 6
TISQSTYIESFNKNSVA	QTSTREE	QDYDRLPLS	En_HC	580 nM	2 of 6
TLTQVTMVEQYNKNSVA	QASTRLE	QDYHRLPLS	En_HC	nd	0 of 6
KLEDSNRWNYRDTNAVA	QASTRAA	QQYQRLPFL	En_Gibbs	3.6 nM	6 of 6
QLSMLTGHVSMSKNNVA	EMETRLN	QQYDRLPLS	En_Gen	8.8 nM	6 of 6
KFEQLWGQEQRNKNSVA	NASQRED	QQYHRLPLS	GP_Gibbs	680 pM	6 of 6
NIYQAMHTLMQARNNVA	DVTERNN	QQYFRLPLS	En_Gen	2.1 nM	6 of 6
KLIQSVAMSSRNKDSIA	DNSTRES	QQYHRLPLS	En_HC	10 nM	6 of 6
NISIEDVSEHNFANNVA	STSCRCS	QQYFHLPLD	En_Gibbs	98 nM	6 of 6
HIDDFNFSEGEKWNAIA	QDATRLQ	QSYQRLPLA	En_Gibbs	nd	0 of 6

3 of these entries, quoted again:

CDR-L1,CDR-L2,CDR-L3,group,Kd (apparent),seen in
MISQLYNMGTFAINSVA,QASIRNL,QQYDRLPLM,En_Gen,360 nM,3 of 6
HISMSMNWLTRNKNSIA,EESTRED,QQYHRLPLS,En_HC,930 pM,6 of 6
HMNDMLLGQEKIAHSIA,NTGVTSR,QQYQRLPLI,En_Gibbs,14 nM,6 of 6

The range of this assay differs from that of the first round, and the authors advise against merging the two.
The authors averaged sequences with at least three values out of six and counted those with two or fewer as poor binders.
Background: pairings of all light chain designs with three empty control strains gave a value in 4% of cases (median 430 nM, 5th percentile 38 nM). Values in that range, when seen in few replicates, are hard to tell from nonspecific mating.

Source: Li et al. 2023 (doi:10.1038/s41467-023-39022-2), MIT Lincoln Laboratory and A-Alpha Bio; data file from the FLAb repository.